Source: patent US8696867B2, “Disulfo-type fluorescent whitening agents” (Blankophor GmbH & Co. KG, priority 2009, dated 2014)

Assay: Solubility of fluorescent whitening agent in distilled water (saturated solution)
Assay type: physicochemical
Method: The solubility of the fluorescent whitening agents was determined as follows: a dry powder of fluorescent whitening agent was added to 50 ml of distilled water until the saturation point was reached. The thus obtained saturated solution was filtered, dried and the dried residue was weighted.
The following results were obtained: 27.8% for FWA 1; 24.2% for FWA 2; and 6.9% for Comparative 1, all at ambient temperature (about 22° C.). The indicated percentages are based on the amount of grams of fluorescent whitening agent dissolved in 100 g of the corresponding saturated FWA solution.

solubility: 6.9%
Compound: O=S(=O)([O-])c1cc(Nc2nc(Nc3ccccc3)nc(N(CCO)CCO)n2)ccc1/C=C/c1ccc(Nc2nc(Nc3ccccc3)nc(N(CCO)CCO)n2)cc1S(=O)(=O)[O-].[Na+].[Na+] [Comparative 1, reference compound]
